{"sequences": {"note": "Chains of the proteins cited; added tags and fusions are not shown. Lines headed by an entry give the natural chain unless they say otherwise; changes in a name come on top. Residues count along the entry.", "UniProt P05177, 2-516 limits assumed": "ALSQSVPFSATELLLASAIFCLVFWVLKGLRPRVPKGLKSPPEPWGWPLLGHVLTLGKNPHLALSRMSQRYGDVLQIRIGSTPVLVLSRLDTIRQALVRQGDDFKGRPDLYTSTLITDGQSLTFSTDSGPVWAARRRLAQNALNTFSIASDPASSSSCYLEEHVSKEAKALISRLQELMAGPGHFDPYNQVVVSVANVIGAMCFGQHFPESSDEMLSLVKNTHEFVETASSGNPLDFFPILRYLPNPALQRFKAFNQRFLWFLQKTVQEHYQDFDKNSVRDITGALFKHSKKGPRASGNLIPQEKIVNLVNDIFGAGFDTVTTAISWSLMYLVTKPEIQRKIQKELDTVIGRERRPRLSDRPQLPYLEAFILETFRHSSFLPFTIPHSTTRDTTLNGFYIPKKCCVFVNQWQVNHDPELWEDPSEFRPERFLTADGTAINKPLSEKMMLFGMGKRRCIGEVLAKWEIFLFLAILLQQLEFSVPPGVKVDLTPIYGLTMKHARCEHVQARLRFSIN", "UniProt P10635, whole entry": "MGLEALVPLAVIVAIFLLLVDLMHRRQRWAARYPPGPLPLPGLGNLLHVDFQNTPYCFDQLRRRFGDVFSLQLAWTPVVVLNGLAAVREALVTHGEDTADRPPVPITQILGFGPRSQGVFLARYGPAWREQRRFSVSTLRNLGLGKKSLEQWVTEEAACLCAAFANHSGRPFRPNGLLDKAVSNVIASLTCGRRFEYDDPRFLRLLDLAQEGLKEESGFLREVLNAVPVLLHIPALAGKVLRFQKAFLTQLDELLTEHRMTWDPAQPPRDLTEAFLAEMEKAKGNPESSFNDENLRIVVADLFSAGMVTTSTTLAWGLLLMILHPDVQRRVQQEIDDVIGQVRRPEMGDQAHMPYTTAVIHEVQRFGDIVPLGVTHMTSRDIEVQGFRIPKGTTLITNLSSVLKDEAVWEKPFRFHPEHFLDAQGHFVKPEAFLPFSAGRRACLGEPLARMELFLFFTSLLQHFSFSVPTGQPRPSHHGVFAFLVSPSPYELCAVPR", "UniProt P20813": "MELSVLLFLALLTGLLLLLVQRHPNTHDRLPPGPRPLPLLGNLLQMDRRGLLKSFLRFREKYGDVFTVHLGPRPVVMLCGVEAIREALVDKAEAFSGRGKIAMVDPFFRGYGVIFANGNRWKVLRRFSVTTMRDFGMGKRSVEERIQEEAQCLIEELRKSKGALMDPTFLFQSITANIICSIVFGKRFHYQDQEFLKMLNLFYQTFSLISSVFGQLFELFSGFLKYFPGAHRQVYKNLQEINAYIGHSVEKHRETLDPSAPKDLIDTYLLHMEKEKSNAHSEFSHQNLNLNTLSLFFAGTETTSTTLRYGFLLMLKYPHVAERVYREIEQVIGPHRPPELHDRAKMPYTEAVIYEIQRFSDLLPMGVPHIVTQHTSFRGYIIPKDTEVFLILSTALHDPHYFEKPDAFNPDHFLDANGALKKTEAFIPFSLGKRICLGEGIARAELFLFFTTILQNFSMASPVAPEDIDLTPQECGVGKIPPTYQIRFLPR", "UniProt P05181": "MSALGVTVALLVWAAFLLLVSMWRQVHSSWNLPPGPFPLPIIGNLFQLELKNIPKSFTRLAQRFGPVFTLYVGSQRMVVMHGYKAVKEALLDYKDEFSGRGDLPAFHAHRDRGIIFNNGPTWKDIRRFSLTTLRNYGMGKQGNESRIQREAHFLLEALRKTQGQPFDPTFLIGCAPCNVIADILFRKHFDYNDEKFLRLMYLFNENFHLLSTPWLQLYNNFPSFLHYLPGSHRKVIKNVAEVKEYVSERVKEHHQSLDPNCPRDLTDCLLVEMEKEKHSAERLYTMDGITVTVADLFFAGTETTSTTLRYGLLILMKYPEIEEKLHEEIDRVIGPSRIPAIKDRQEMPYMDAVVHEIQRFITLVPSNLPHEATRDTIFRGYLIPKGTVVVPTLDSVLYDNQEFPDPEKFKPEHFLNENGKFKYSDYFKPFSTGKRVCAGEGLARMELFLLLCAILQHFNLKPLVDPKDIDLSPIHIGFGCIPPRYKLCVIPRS", "UniProt P10632, whole entry": "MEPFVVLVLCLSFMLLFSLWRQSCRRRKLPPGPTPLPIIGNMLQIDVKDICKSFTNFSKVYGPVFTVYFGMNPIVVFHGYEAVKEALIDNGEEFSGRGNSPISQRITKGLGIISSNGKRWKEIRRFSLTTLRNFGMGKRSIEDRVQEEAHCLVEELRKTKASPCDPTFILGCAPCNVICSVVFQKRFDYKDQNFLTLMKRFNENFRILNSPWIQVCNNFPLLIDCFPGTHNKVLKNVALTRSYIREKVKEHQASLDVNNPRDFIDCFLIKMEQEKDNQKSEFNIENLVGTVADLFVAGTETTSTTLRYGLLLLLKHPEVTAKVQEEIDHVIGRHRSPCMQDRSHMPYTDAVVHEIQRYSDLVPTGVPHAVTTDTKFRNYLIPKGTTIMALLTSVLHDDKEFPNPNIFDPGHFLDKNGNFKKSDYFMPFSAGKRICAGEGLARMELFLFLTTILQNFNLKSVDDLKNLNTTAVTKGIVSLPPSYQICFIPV", "UniProt P33261, whole entry": "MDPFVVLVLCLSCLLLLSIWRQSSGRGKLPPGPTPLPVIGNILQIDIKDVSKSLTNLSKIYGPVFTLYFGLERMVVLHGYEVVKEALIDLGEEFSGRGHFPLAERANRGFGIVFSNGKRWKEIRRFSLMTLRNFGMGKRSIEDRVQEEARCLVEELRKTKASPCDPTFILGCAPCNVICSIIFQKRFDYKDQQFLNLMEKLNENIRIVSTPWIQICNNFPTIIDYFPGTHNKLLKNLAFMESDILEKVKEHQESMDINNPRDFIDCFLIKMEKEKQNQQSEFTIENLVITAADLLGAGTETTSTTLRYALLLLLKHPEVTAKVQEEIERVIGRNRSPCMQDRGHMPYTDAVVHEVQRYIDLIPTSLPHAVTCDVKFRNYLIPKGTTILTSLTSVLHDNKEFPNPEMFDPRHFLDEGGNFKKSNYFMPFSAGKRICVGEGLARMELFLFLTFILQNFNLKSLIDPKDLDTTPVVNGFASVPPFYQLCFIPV", "UniProt P11712, whole entry": "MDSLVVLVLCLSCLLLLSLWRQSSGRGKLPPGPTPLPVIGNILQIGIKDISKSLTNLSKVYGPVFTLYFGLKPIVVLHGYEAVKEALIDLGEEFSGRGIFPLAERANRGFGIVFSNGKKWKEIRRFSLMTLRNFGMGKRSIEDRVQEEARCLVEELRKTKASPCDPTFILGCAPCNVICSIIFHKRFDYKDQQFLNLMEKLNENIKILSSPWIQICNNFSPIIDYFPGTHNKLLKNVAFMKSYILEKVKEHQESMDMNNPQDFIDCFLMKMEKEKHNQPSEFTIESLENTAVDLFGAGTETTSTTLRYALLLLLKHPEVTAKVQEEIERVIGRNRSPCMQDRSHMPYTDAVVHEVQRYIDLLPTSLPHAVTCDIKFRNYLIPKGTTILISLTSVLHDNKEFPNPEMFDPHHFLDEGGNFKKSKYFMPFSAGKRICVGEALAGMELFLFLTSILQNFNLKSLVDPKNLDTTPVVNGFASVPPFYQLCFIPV"}, "source": "patent US20070190188A1", "about": "“Controlling Toxicity of Aminoquinoline Compounds” (The University of Mississippi, priority 2005, published 2007)", "assay_type_in_all_cases": "cell-based", "key": {"[1]": {"tested_on": "pooled human liver microsomes", "assay": "In vitro formation of methemoglobinemic metabolites with pooled human liver microsomes and human erythrocytes"}, "[2]": {"biological_target": "T1, CYP 1A2 (Homo sapiens, UniProt P05177)", "T1 construct": "purchased; host or cells: insect cells infected with recombinant baculovirus", "assay": "Methemoglobinemic metabolite formation with Baculosomes, CYP 1A2", "conditions": "mean ± S.D. of four"}, "[3]": {"biological_target": "T2, CYP 2D6 (Homo sapiens, UniProt P10635)", "T2 construct": "purchased; host or cells: insect cells infected with recombinant baculovirus", "assay": "Methemoglobinemic metabolite formation with Baculosomes, CYP 2D6", "conditions": "mean ± S.D. of four"}, "[4]": {"biological_target": "T3, CPY 2B6 (Homo sapiens, UniProt P20813)", "T3 construct": "purchased; host or cells: insect cells infected with recombinant baculovirus", "assay": "Methemoglobinemic metabolite formation with Baculosomes, CYP 2B6", "conditions": "mean ± S.D. of four"}, "[5]": {"biological_target": "T4, CYP 2E1 (Homo sapiens, UniProt P05181)", "T4 construct": "purchased; host or cells: insect cells infected with recombinant baculovirus", "assay": "Methemoglobinemic metabolite formation with Baculosomes, CYP 2E1", "conditions": "mean ± S.D. of four"}, "[6]": {"biological_target": "T5, CYP 2A6 (Homo sapiens, UniProt P11509)", "T5 construct": "purchased; host or cells: insect cells infected with recombinant baculovirus", "T5 sequence (P11509 1-494)": "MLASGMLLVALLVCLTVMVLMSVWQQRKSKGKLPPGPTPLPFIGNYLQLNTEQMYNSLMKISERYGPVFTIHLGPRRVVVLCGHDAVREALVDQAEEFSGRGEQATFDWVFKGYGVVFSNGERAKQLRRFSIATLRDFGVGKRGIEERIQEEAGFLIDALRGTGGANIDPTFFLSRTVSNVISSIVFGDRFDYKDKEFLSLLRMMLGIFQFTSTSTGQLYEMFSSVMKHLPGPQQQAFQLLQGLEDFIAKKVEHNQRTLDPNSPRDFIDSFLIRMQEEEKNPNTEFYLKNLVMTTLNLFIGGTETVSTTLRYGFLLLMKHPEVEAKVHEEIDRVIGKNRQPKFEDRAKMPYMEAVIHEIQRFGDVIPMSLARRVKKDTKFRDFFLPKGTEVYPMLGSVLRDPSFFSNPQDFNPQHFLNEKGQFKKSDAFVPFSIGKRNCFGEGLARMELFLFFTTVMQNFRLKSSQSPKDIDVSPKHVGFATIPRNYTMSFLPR", "assay": "Methemoglobinemic metabolite formation with Baculosomes, CYP 2A6", "conditions": "mean ± S.D. of four"}, "[7]": {"biological_target": "T6, CYP 2C8 (Homo sapiens, UniProt P10632)", "T6 construct": "purchased; host or cells: insect cells infected with recombinant baculovirus", "assay": "Methemoglobinemic metabolite formation with Baculosomes, CYP 2C8", "conditions": "mean ± S.D. of four"}, "[8]": {"biological_target": "T7, CYP 2C19 (Homo sapiens, UniProt P33261)", "T7 construct": "purchased; host or cells: insect cells infected with recombinant baculovirus", "assay": "Methemoglobinemic metabolite formation with Baculosomes, CYP 2C19", "conditions": "mean ± S.D. of four"}, "[9]": {"biological_target": "T8, CYP 2C9 (Homo sapiens, UniProt P11712)", "T8 construct": "purchased; host or cells: insect cells infected with recombinant baculovirus", "assay": "Methemoglobinemic metabolite formation with Baculosomes, CYP 2C9", "conditions": "mean ± S.D. of four"}}, "data": [{"compound": "COc1cc(NC(C)CCCN)c2ncccc2c1", "note": "(stereo not drawn) [Primaquine, primaquine, reference compound]", "values": [{"measurement": "% methemoglobin formation, Pooled Human liver Microsomes", "setting": "[1]; drug 100 μM, microsomes equivalent to 25 pmoles cytochrome P450, Mean ± S.D. of four", "value": "17.060 ± 1.015", "unit": "%"}, {"measurement": "formation of methemoglobenemic metabolites, Azithromycin", "setting": "[1]; pooled human Liver Microsomes, 8-aminoquinoline with Azithromycin", "value": "12.930 ± 2.515"}, {"measurement": "formation of methemoglobenemic metabolites, Erythromycin", "setting": "[1]; pooled human Liver Microsomes, 8-aminoquinoline with Erythromycin", "value": "13.688 ± 0.470"}, {"measurement": "formation of methemoglobenemic metabolites, Microsomes", "setting": "[1]; pooled human Liver Microsomes, no macrolide", "value": "17.490 ± 0.913"}, {"measurement": "% methemoglobin formed, CYP 1A2", "setting": "[2]", "value": "7.170 ± 0.744", "unit": "%"}, {"measurement": "% methemoglobin formed, CYP 2D6", "setting": "[3]", "value": "19.500 ± 1.728", "unit": "%"}, {"measurement": "% methemoglobin formed, CPY 2B6", "setting": "[4]", "value": "16.880 ± 1.215", "unit": "%"}, {"measurement": "% methemoglobin formed, CYP 2E1", "setting": "[5]", "value": "16.890 ± 1.978", "unit": "%"}, {"measurement": "% methemoglobin formed, CYP 2A6", "setting": "[6]", "value": "2.435 ± 0.786", "unit": "%"}, {"measurement": "% methemoglobin formed, CYP 2C8", "setting": "[7]", "value": "2.025 ± 0.222", "unit": "%"}, {"measurement": "% methemoglobin formed, CYP 2C19", "setting": "[8]", "value": "2.300 ± 0.816", "unit": "%"}, {"measurement": "% methemoglobin formed, CYP 2C9", "setting": "[9]", "value": "0.450 ± 0.530", "unit": "%"}]}]}
